Reference: PubChem BioAssay AID1347419 (Sanford-Burnham Center for Chemical Genomics, 2020)
The list shows a part of the results, in another mix than the full data. The source made the active and inactive calls.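 The calls were made as follows: active = Z-score of -3 or lower, scaled per plate to the spread of control and sample wells; inactive = z-score above -3.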

The chains behind the UniProt entries cited, without tags or fusion partners.
UniProt Q14289, whole entry, looked up: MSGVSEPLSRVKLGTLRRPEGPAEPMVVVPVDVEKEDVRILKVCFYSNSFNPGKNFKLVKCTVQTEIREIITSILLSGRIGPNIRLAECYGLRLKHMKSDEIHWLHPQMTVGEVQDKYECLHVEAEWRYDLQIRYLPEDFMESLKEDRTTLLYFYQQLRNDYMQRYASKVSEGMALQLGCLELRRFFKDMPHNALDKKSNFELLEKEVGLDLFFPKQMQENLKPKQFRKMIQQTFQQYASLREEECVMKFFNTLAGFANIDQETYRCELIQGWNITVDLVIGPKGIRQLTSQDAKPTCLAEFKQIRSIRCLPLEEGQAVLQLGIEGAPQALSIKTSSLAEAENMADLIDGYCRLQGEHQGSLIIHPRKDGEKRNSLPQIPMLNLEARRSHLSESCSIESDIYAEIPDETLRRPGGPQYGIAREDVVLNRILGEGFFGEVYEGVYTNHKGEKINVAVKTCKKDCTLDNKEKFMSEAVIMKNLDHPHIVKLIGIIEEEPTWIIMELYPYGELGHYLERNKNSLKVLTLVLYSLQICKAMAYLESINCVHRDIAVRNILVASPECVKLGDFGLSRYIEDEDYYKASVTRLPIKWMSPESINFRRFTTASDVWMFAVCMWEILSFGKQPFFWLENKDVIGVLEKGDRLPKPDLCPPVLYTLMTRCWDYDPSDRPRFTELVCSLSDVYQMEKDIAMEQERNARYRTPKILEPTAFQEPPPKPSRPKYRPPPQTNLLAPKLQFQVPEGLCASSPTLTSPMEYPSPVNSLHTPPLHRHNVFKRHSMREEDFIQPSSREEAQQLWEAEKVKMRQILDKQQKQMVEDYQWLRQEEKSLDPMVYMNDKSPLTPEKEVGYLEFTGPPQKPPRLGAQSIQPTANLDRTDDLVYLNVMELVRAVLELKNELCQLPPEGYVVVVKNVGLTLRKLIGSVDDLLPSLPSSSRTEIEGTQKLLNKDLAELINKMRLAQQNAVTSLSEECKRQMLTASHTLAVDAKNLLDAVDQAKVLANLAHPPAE

What follows are molecules tested against Protein-tyrosine kinase 2-beta (Homo sapiens) (UniProt Q14289) (assay: antagonists of Pyk2 self-association, primary screen, Q293 cells, FERM NanoBiT luminescence, HTS (AID 1347419;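 also: the deposit names both 25 µM and 10 µM; negative z-score means lost luminescence so less FERM oligomerization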)). Conditions: hits give low values.
Parameters: dose or concentration left out as unconfirmed

**Q.** `CP(=O)(Oc1ccccc1)N1CCOC1=O` (centres undefined) was tested. Which z-score did it give?
**A.** The z-score was inactive: -0.49.

**Q.** For `COc1ccccc1OP(C)(=O)Nc1c(C)n(C)n(-c2ccccc2)c1=O` (centres undefined), which z-score is on record?
**A.** Its z-score is inactive: 0.47.

**Q.** Which z-score does the source give for `CCN(CC)CC(O)COC(=O)C(O)(c1ccccc1)C1CCCCC1` (centres undefined) here?
**A.** Its z-score is inactive: 0.08.

**Q.** For `CP(=O)(Nc1ccc(Cl)cc1)Oc1ccc(F)cc1` (centres undefined), which z-score is on record?
**A.** Its z-score is inactive: 1.8.

**Q.** Which z-score does the source give for `CC(C)(C)c1ccc(OP(C)(=O)O)cc1` here?
**A.** The z-score was inactive: 1.17.

**Q.** For `CP(=O)(OC12CC3CC(CC(C3)C1)C2)OC12CC3CC(CC(C3)C1)C2`, which z-score is on record?
**A.** Its z-score is inactive: 0.26.

**Q.** How did the z-score turn out when `CCOC(=O)c1ccc(NP(C)(=O)Oc2ccc(Cl)cc2)cc1` (centres undefined) was run?
**A.** Its z-score is inactive: -0.65.

**Q.** For `COc1ccccc1OP(C)(=O)Nc1ccc(C)c(C)c1` (centres undefined), which z-score is on record?
**A.** Its z-score is inactive: 0.49.

**Q.** For `CN(C)CCOC(=O)C(O)(c1ccccc1)C1CCCC1` (centres undefined), which z-score is on record?
**A.** Its z-score is inactive: 0.47.

**Q.** Which z-score does the source give for `COc1ccc(OP(C)(=O)Nc2ccccn2)cc1` (centres undefined) here?
**A.** Its z-score is inactive: 0.71.

**Q.** For `CCc1ccc(OP(C)(=O)O)cc1`, which z-score is on record?
**A.** Its z-score is inactive: 0.47.

**Q.** With `CP(=O)(Nc1ccccn1)Oc1ccccc1` (centres undefined) as the molecule, how does the z-score read?
**A.** Its z-score is inactive: 0.52.

**Q.** `COc1ccccc1OP(C)(=O)Nc1ccc(C)cc1C` (centres undefined) was tested. Which z-score did it give?
**A.** The z-score was inactive: 1.1.

**Q.** Which z-score does the source give for `Cc1c(NP(C)(=O)Oc2ccc(C(C)C)cc2)c(=O)n(-c2ccccc2)n1C` (centres undefined) here?
**A.** Its z-score is inactive: 0.91.

**Q.** Which z-score does the source give for `CP(=O)(Nc1ccccc1F)Oc1ccccc1` (centres undefined) here?
**A.** The z-score was inactive: -0.13.

**Q.** With `CP(=O)(Nc1ccccc1)Oc1ccc(F)cc1` (centres undefined) as the molecule, how does the z-score read?
**A.** The z-score was inactive: -0.58.

**Q.** With `CCN(CC)CCCOC(=O)C(O)(c1ccccc1)C1CCCCC1` (centres undefined) as the molecule, how does the z-score read?
**A.** The z-score was inactive: 0.19.

**Q.** How did the z-score turn out when `CN(C)CCOC(=O)C(O)(c1ccccc1)C1CCCCC1` (centres undefined) was run?
**A.** The z-score was inactive: -0.73.

**Q.** Which z-score does the source give for `COc1ccc(OP(C)(=O)Nc2cccc(Br)c2)cc1` (centres undefined) here?
**A.** Its z-score is inactive: -1.06.

**Q.** For `CCOP(C)(=S)SCC(=O)NC(C)(CC)C(=O)O` (centres undefined), which z-score is on record?
**A.** The z-score was inactive: 0.68.

**Q.** For `Cc1ccccc1NP(C)(=O)Nc1ccccc1C`, which z-score is on record?
**A.** Its z-score is inactive: 0.51.

**Q.** With `CP(=O)(Nc1ccc2c(c1)OCCO2)Oc1ccccc1` (centres undefined) as the molecule, how does the z-score read?
**A.** Its z-score is inactive: -0.34.

**Q.** How did the z-score turn out when `Cc1nc2ccc3ccccc3c2s1.O=[N+]([O-])c1cc([N+](=O)[O-])c(O)c([N+](=O)[O-])c1` was run?
**A.** The z-score was inactive: -0.88.

**Q.** With `COc1ccccc1OP(C)(=O)Nc1c(C)cccc1C` (centres undefined) as the molecule, how does the z-score read?
**A.** Its z-score is inactive: -0.37.

**Q.** Which z-score does the source give for `Cc1cc(C)cc(OP(C)(=O)Nc2ccc(C)cc2C)c1` (centres undefined) here?
**A.** Its z-score is inactive: 0.28.

**Q.** `Cc1cc(C)cc(OP(C)(=O)Nc2ccccn2)c1` (centres undefined) was tested. Which z-score did it give?
**A.** Its z-score is inactive: 0.84.

**Q.** With `Cc1ccc(C)c(NP(C)(=O)Oc2ccccc2)c1` (centres undefined) as the molecule, how does the z-score read?
**A.** Its z-score is inactive: 0.51.

**Q.** For `COc1ccc(OP(C)(=O)Nc2cccc(F)c2)cc1` (centres undefined), which z-score is on record?
**A.** Its z-score is inactive: 0.22.

**Q.** With `COc1ccccc1OP(C)(=O)Nc1ccc(C)cc1` (centres undefined) as the molecule, how does the z-score read?
**A.** Its z-score is inactive: 2.29.

**Q.** With `Cc1ccc(NP(C)(=O)Oc2ccccc2)c(C)c1` (centres undefined) as the molecule, how does the z-score read?
**A.** The z-score was inactive: -0.32.

**Q.** For `CP(=S)(Nn1cnnc1)Oc1ccccc1` (centres undefined), which z-score is on record?
**A.** The z-score was inactive: -0.23.

**Q.** How did the z-score turn out when `CP(=O)(NC(=O)Nc1ccccc1)Oc1ccccc1` (centres undefined) was run?
**A.** Its z-score is inactive: 1.14.

**Q.** For `CP(=O)(Nc1ccccn1)Oc1ccc(Cl)cc1` (centres undefined), which z-score is on record?
**A.** Its z-score is inactive: 0.08.

**Q.** How did the z-score turn out when `CCOP(C)(=S)SCC(=O)NC(C)C(=O)O` (centres undefined) was run?
**A.** Its z-score is inactive: 0.22.
